Source: patent US20030232419A1, “Molecules interacting with CASL (MICAL) polynucleotides, polypeptides, and methods of using the same” (priority 2002, published 2003)

Key:
[1] = target: T1, matrix metalloproteinase MMP-2 (Homo sapiens, UniProt P08253); conditions: similar concentrations of EGCG; cited from earlier work
T1 sequence (P08253 110-660): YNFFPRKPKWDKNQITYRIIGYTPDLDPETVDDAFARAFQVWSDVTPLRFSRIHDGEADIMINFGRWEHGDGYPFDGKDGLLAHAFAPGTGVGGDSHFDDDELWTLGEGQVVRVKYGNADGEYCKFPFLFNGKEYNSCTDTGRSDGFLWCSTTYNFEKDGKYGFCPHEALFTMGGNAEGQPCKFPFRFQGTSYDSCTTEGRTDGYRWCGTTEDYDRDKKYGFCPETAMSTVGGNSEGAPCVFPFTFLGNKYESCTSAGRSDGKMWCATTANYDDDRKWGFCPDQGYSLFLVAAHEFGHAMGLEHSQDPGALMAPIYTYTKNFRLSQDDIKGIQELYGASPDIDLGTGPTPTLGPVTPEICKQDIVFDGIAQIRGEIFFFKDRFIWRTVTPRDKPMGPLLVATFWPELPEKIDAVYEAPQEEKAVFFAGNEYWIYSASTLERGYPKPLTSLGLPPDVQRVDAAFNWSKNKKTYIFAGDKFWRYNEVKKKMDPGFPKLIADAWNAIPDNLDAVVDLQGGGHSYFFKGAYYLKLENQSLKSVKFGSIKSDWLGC

[2] = test system: Sema3A-mediated axonal repulsion of NGF-dependent DRG axons; assay: in vitro rat DRG growth cone repulsion assay using Sema 3A-secreting 293 cells; format: cell-based; conditions: inhibitor in growth media, several concentrations; much higher EC than EGCG concentration required
Method: FIG. 4A provides a schematic diagram of the rat D E14/15 Rat DRG explants were co-cultured with 293 cells expressing Sema 3A and grown for 48 hours in the presence of an inhibitor or vehicle. Axonal outgrowth was determined by measuring proximal (P) and distal (D) axon lengths.
DRG repulsion assays were performed as described (Messersmith et al., 1995).
Scoring was done by splitting explants into quadrants and scoring all growth cones as either collapsed or not-collapsed.

In the case of (−)-epigallocatechin gallate [EGCG], the “inhibition of MMP-2” value [1] is listed as “inhibit” and the “attenuation of Sema3A-mediated axonal repulsion (P/D ratio)” value [2] is listed as “in a dose-dependent manner”.
